Measured values published in a protein production outcome set (Wang et al. 2014).

Assay: label from the status in PepcDB records

| Sequence | protein production |
| --- | --- |
| MEGERKNNNKRWYFTREQLENSPSRRFGVDPDKELSYRQQAANLLQDMGQRLNVSQLTINTAIVYMHRFYMIQSFTQFPGNSVAPAALFLAAKVEEQPKKLEHVIKVAHTCLHPQESLPDTRSEAYLQQVQDLVILESIILQTLGFELTIDHPHTHVVKCTQLVRASKDLAQTSYFMATNSLHLTTFSLQYTPPVVACVCIHLACKWSNWEIPVSTDGKHWWEYVDATVTLELLDELTHEFLQILEKTPNRLKRIWNWRACEAAKKTKADDRGTDEKTSEQTILNMISQSSSDTTIAGLMSMSTSTT | failed |
| MGRARDAILDALENLTAEELKKFKLKLLSVPLREGYGRIPRGALLSMDALDLTDKLVSFYLETYGAELTANVLRDMGLQEMAGQLQAATHQGSGAAPAGIQAPPQSAAKPGLHFIDQHRAALIARVTNVEWLLDALYGKVLTDEQYQAVRAEPTNPSKMRKLFSFTPAWNWTCKDLLLQALRESQSYLVEDLERS | failed |
